In PubChem BioAssay AID624352 (Sanford-Burnham Center for Chemical Genomics, 2012):
This is a selection; strong and weak results do not stand in their true shares. Some tests of the compounds listed are not included; inactive here does not mean inactive elsewhere. The source made the active and inactive calls.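 The calls were made as follows: active = inhibition of the luminescence signal of 40% or more relative to plate controls, in a single-dose primary screen at 18.75 µM; inactive = the rest.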

Experiment: HIF-2a reporter inhibitors, primary screen, luminescence, 786-0 RCC cells (AID 624352)
Conditions: 786-0 RCC cells HIF-2a reporter, luciferase luminescence, overnight; at 18.8 µM; hits give high values

| Structure (SMILES) | inhibition |
| --- | --- |
| COc1ccc(C(=O)NCC2(N(C)C)CCCCC2)cc1 | inactive: 13.6% |
| Cc1cc(C(=O)NCC2(N3CCCCC3)CCCCC2)ccc1[N+](=O)[O-] | inactive: 3.38% |
| CCN1CCCC(OC(=O)C2(O)c3ccccc3C=Cc3ccccc32)C1 (stereo unspecified) | inactive: 13.7% |
| O=C(NCC1(N2CCCCC2)CCCCC1)c1cccc(Br)c1 | inactive: 18.5% |
| C=CCN1CCN(CCOC(=O)C(O)(c2ccccc2)c2ccccc2)CC1 | inactive: 5.12% |
| O=C(NCC1(N2CCCCC2)CCCCC1)c1cc(F)c(F)cc1Cl | inactive: 12.1% |
| Cc1ccccc1C(=O)NCC1(N2CCCCC2)CCCCC1 | inactive: 14.2% |
| CN(C)C1CCCC1OC(=O)C(O)(c1ccccc1)c1ccccc1 (stereo unspecified) | inactive: 9.31% |
| CN(C)c1ccc(C(=O)NCC2(N(C)C)CCCCC2)cc1 | inactive: -2.74% |
| Cc1ccc(C(=O)NCC2(N3CCCCC3)CCCCC2)cc1 | inactive: 4.76% |
| CCN(CC)CC(C)C(C)OC(=O)C(O)(c1ccccc1)c1ccccc1 (stereo unspecified) | inactive: 11.8% |
| COc1cc(SC)ccc1C(=O)NCC1(N(C)C)CCCCC1 | inactive: 8.59% |
| CC(C)N1C(=O)CC2(CCN(CCOC(=O)C(O)(c3ccccc3)c3ccccc3)CC2)C1=O | inactive: 11% |
| CN1[C@@H]2CC[C@H]1CC(OC(=O)C(O)(c1ccccc1)c1ccccc1)C2 (stereo partly specified) | inactive: 12.8% |
| O=C(NCC1(N2CCCCC2)CCCCC1)c1cc([N+](=O)[O-])ccc1Cl | inactive: 8.89% |
| CC(C)Oc1ccc(C(=O)NCC2(N(C)C)CCCCC2)cc1 | inactive: -4.27% |
| O=C(OCCN1CCCC1)C(O)(c1ccccc1)c1ccccc1 | inactive: 4.53% |
| CN(C)c1cccc(C(=O)NCC2(N(C)C)CCCCC2)c1 | inactive: -2.71% |
| C=C(C)C#CC(O)(C(=O)OC1CCN(C)CC1)c1ccccc1 (stereo unspecified) | inactive: 4.79% |
| COc1ccc(Br)c(C(=O)NCC2(N3CCCCC3)CCCCC2)c1 | inactive: -5.04% |
| O=C(OC1CN2CCC1CC2)C(CO)(c1ccccc1)c1ccccc1 (stereo unspecified) | inactive: 4.67% |
| O=C(NCC1(N2CCCCC2)CCCCC1)c1cccc(Cl)c1 | inactive: 8.61% |
| COc1cccc(C(=O)NCC2(N3CCCCC3)CCCCC2)c1 | inactive: 10.5% |
| COc1ccc(Cl)cc1C(=O)NCC1(N(C)C)CCCCC1 | inactive: 7.52% |
| COc1cc(C(=O)NCC2(N(C)C)CCCCC2)c([N+](=O)[O-])cc1OC | inactive: 14.7% |
| CN(C)C1(CNC(=O)c2ccc(Br)cc2)CCCCC1 | inactive: 10.5% |
